These results are taken from ChEMBL document CHEMBL5715957, “D4 dopamine receptor high-resolution structures enable the discovery of selective agonists” (2017).

The chains behind the UniProt entries cited, without tags or fusion partners.
UniProt P21917, whole entry, looked up: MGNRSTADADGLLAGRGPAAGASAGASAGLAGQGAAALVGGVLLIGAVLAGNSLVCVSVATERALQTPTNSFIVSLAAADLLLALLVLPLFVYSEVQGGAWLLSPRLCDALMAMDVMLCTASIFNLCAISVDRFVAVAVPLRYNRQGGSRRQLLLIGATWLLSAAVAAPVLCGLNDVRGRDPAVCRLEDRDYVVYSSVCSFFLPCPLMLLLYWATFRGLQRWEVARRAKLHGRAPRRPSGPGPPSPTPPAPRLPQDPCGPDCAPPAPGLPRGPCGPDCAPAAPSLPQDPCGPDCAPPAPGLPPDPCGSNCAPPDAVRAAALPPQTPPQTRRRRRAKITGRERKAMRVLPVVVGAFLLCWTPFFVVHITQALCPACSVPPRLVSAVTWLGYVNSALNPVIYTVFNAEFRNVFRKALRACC
UniProt P14416, whole entry, looked up: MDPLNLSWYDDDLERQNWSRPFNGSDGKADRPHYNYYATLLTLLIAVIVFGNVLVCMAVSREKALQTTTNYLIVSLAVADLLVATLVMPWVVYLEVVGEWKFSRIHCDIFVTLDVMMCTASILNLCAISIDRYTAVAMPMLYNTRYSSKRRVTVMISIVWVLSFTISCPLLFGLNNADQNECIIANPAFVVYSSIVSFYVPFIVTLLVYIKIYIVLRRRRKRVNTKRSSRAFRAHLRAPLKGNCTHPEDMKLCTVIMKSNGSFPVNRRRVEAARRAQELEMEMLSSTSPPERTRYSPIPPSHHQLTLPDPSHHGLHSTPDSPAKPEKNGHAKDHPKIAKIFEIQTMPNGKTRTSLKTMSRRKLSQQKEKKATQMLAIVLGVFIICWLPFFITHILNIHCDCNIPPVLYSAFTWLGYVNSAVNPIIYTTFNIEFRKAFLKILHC
UniProt P35462, whole entry, looked up: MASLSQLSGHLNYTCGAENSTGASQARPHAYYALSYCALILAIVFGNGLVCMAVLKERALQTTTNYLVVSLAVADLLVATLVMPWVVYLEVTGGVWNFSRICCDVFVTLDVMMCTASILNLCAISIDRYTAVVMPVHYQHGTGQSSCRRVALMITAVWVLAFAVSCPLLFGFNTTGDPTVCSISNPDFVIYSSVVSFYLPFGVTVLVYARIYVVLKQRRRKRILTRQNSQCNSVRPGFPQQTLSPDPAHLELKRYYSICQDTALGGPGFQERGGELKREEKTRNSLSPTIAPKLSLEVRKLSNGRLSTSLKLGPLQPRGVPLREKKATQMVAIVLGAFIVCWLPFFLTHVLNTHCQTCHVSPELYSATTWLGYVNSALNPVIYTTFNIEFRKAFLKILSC

The target of one test is D(4) dopamine receptor (Homo sapiens, UniProt P21917). Kind of test: Displacement of 3H-N-Methylspiperone from DRD4 in human HEK293T cells membrane assessed as inhibition constant incubated for 2 hrs by radioligand competition assay.
A further test concerns the target D(2) dopamine receptor (Homo sapiens, UniProt P14416). Kind of test: Displacement of 3H-N-Methylspiperone from DRD2 in human HEK293T cells membrane assessed as inhibition constant incubated for 2 hrs by radioligand competition assay.
For a further test, the target named is D(3) dopamine receptor (Homo sapiens, UniProt P35462). Kind of test: Displacement of 3H-N-Methylspiperone from DRD3 in human HEK293T cells membrane assessed as inhibition constant incubated for 2 hrs by radioligand competition assay.
Test [1] can be described thus: Displacement of 3H-N-Methylspiperone from DRD4 F2.61V mutant in human HEK293T cells membrane assessed as inhibition constant incubated for 2 hrs by radioligand competition assay.
The nature of test [2]: Displacement of 3H-N-Methylspiperone from DRD4 L3.28F mutant in human HEK293T cells membrane assessed as inhibition constant incubated for 2 hrs by radioligand competition assay.
Test [3] is described as follows: Displacement of 3H-N-Methylspiperone from DRD4 F2.61V / L3.28F mutant in human HEK293T cells membrane assessed as inhibition constant incubated for 2 hrs by radioligand competition assay.
Test [4] is described as follows: Displacement of 3H-N-Methylspiperone from DRD2 V2.61F / F3.28L mutant in human HEK293T cells membrane assessed as inhibition constant incubated for 2 hrs by radioligand competition assay.
Test [5] in a line: Displacement of 3H-N-Methylspiperone from DRD2 V2.61F mutant in human HEK293T cells membrane assessed as inhibition constant incubated for 2 hrs by radioligand competition assay.

For `CCn1nc(C)c(CCNCc2cc(=O)c3cc(C)ccc3[nH]2)c1C`, the inhibition constant (Ki) at D(4) dopamine receptor, at D(2) dopamine receptor and on D(3) dopamine receptor was more than 10 µM in each case.
Consider `Cc1n[nH]c(SCCNCc2cc(=O)c3cc(F)ccc3[nH]2)n1`, for which the Ki at D(4) dopamine receptor, on D(2) dopamine receptor and at D(3) dopamine receptor was more than 10 µM in each case.
With `CCCC[C@@H](NCc1cc(=O)c2cc(F)ccc2[nH]1)C(N)=O`, the inhibition constant (Ki) on D(4) dopamine receptor, on D(2) dopamine receptor and on D(3) dopamine receptor was more than 10 µM each time.
Turning to `O=c1cc(CNC[C@@H](O)c2ccccc2)[nH]c2ccc(F)cc12`, the inhibitory constant (Ki) on D(4) dopamine receptor, at D(2) dopamine receptor and on D(3) dopamine receptor was more than 10 µM in each case.
On to `Cc1cccc(C(=O)NCN2CCN(c3ccccc3C#N)CC2)c1`, for which the Ki at D(2) dopamine receptor was determined as 6.48 µM.
As to `O=c1cc(CNCCCN2CCCC[C@H]2CO)[nH]c2ccc(F)cc12`, the Ki at D(4) dopamine receptor, at D(2) dopamine receptor and at D(3) dopamine receptor was more than 10 µM throughout.
Regarding `NC(=O)[C@H](Cc1ccccc1)NCc1cc(=O)c2cc(F)ccc2[nH]1`, the inhibitory constant (Ki) at D(4) dopamine receptor, at D(2) dopamine receptor and on D(3) dopamine receptor was more than 10 µM throughout.
On to `Cc1ccc2nc(CNCCCN3CCCC3=O)cc(O)c2c1`, for which the Ki at D(4) dopamine receptor was 0.1 µM; on D(2) dopamine receptor it was more than 10 µM; on D(3) dopamine receptor, more than 10 µM.
Regarding `C[C@@H](Cc1cncs1)NCc1cc(=O)c2cc(F)ccc2[nH]1`, the Ki on D(4) dopamine receptor was 5.9 µM; on D(2) dopamine receptor, more than 10 µM; on D(3) dopamine receptor it was more than 10 µM.
As for `Cc1ccc2nc(CN[C@H](c3cccs3)C3CC3)cc(=O)n2c1`, the Ki on D(4) dopamine receptor is 0.7 µM; on D(2) dopamine receptor, more than 10 µM; on D(3) dopamine receptor, 4 µM.
As for `CC(C)C[C@H](CO)NCc1cc(=O)c2cc(F)ccc2[nH]1`, the inhibition constant Ki at D(4) dopamine receptor, on D(2) dopamine receptor and at D(3) dopamine receptor was more than 10 µM in each case.
For the compound `O=c1cc(CNCCSc2cn[nH]n2)[nH]c2ccc(F)cc12`, the Ki at D(4) dopamine receptor, on D(2) dopamine receptor and on D(3) dopamine receptor was more than 10 µM in each case.
Take `NCCc1ccc(O)c(O)c1`: the pKi is 6.58 in test [1], 6.77 in test [2], 6.95 in test [3] and 5.89 in test [4]. Also, the inhibition constant Ki in test [2] turned out to be 0.172 µM; in test [4], 1.29 µM.
For `Oc1cc(CNCCc2nccs2)nc2c(F)cccc12`, the values for the Ki at D(4) dopamine receptor, at D(2) dopamine receptor and on D(3) dopamine receptor were 6.7 µM, more than 10 µM and more than 10 µM, respectively.
In the case of `O=c1cc(CNCC2(O)CCCCC2)[nH]c2ccc(F)cc12`, the Ki on D(4) dopamine receptor was 7.4 µM; on D(2) dopamine receptor it was more than 10 µM; at D(3) dopamine receptor, more than 10 µM.
With `O=c1cc(CNCCc2nc3c(s2)CCC3)[nH]c2ccc(F)cc12`, the inhibitory constant (Ki) on D(4) dopamine receptor was 1.1 µM; at D(2) dopamine receptor it was more than 10 µM; on D(3) dopamine receptor, more than 10 µM.
As for `Cc1ccc2nc(CNCCCn3ccnc3)cc(O)c2c1`, the inhibitory constant (Ki) on D(4) dopamine receptor is 0.6 µM; on D(2) dopamine receptor, more than 10 µM; on D(3) dopamine receptor, more than 10 µM.
As for `CCc1nccn1CCCNCc1cc(=O)c2cc(C)ccc2[nH]1`, the inhibition constant (Ki) on D(4) dopamine receptor, on D(2) dopamine receptor and on D(3) dopamine receptor was more than 10 µM in each case.
In the case of `CNc1cc(OC)c(C(=O)NC2CCN(Cc3ccccc3)C2C)cc1Cl` (stereo not given), the inhibitory constant (Ki) in test [1] came to 0.00524 µM; in test [2], 0.00715 µM; in test [3], 0.00627 µM; in test [5] it was 0.00029 µM; in test [4], 0.00038 µM. For the same compound, the pKi in test [1] worked out at 8.35; in test [2] it was 8.15; in test [3], 8.21; in test [5] it was 9.54; in test [4], 9.44.
Regarding `O=c1cc(CNC[C@@H](O)c2ccccn2)[nH]c2ccc(F)cc12`, the Ki on D(4) dopamine receptor, on D(2) dopamine receptor and at D(3) dopamine receptor was more than 10 µM each time.
On to `Cc1nc(CCNCc2cc(=O)c3cc(F)ccc3[nH]2)cc(=O)[nH]1`, for which the Ki at D(4) dopamine receptor, on D(2) dopamine receptor and at D(3) dopamine receptor was more than 10 µM in each case.
As for `O=c1cc(CN[C@@H]2COC3(CCCC3)C2)[nH]c2ccc(F)cc12`, the inhibition constant Ki at D(4) dopamine receptor, at D(2) dopamine receptor and on D(3) dopamine receptor was more than 10 µM each time.
Turning to `Cc1n[nH]c(C)c1CCCNCc1cc(=O)c2cc(F)ccc2[nH]1`, the inhibition constant Ki is 0.8 µM on D(4) dopamine receptor, more than 10 µM at D(2) dopamine receptor and more than 10 µM on D(3) dopamine receptor.
On to `Cc1ccc2[nH]c(CNCCc3nc(-c4cccnc4)n[nH]3)cc(=O)c2c1`, for which the Ki at D(4) dopamine receptor, at D(2) dopamine receptor and at D(3) dopamine receptor was more than 10 µM each time.
For `Cc1ccc2[nH]c(CNCCSc3nc(C)n[nH]3)cc(=O)c2c1`, the inhibition constant (Ki) was 1.2 µM on D(4) dopamine receptor, more than 10 µM on D(2) dopamine receptor and more than 10 µM at D(3) dopamine receptor.
For `Cc1ccc2nc(CNCCCN3CCOCC3)cc(O)c2c1`, the inhibition constant (Ki) on D(4) dopamine receptor, at D(2) dopamine receptor and on D(3) dopamine receptor was more than 10 µM each time.
As for `O=c1cc(CN[C@@H]2CCSC2)[nH]c2ccc(F)cc12`, the Ki at D(4) dopamine receptor, on D(2) dopamine receptor and at D(3) dopamine receptor was more than 10 µM throughout.
Regarding `Cc1ccc2[nH]c(CNCc3csc(-c4ncccn4)n3)cc(=O)c2c1`, the Ki at D(4) dopamine receptor, at D(2) dopamine receptor and at D(3) dopamine receptor was more than 10 µM each time.
Take `CN(CCCc1nccn1C)Cc1cc(O)c2cccc(Cl)c2n1`: the inhibition constant (Ki) at D(4) dopamine receptor is 6.1 µM; at D(2) dopamine receptor, more than 10 µM; on D(3) dopamine receptor it was more than 10 µM.
Regarding `Cc1ccsc1CN(C)Cc1cc(=O)n2ccccc2n1`, the figures for the Ki on D(4) dopamine receptor, on D(2) dopamine receptor and on D(3) dopamine receptor were 3 µM, more than 10 µM and 3.59 µM, respectively.
Consider `Cc1ccc2[nH]c(CNCC[C@@H]3CCCCO3)cc(=O)c2c1`, for which the Ki on D(4) dopamine receptor is 0.38 µM; on D(2) dopamine receptor, more than 10 µM; at D(3) dopamine receptor, more than 10 µM.
In the case of `O=c1cc(CNCCCOc2cccnc2)[nH]c2ccc(F)cc12`, the Ki on D(2) dopamine receptor and at D(3) dopamine receptor was more than 10 µM in each case.
As for `CCc1nc(CCNCc2cc(=O)c3cc(F)ccc3[nH]2)cs1`, the values for the inhibition constant Ki at D(4) dopamine receptor, on D(2) dopamine receptor and at D(3) dopamine receptor were 1.6 µM, more than 10 µM and more than 10 µM, respectively.
In the case of `O=c1cc(CNCCc2csc(-c3ncccn3)n2)[nH]c2ccc(F)cc12`, the inhibition constant (Ki) was 1.8 µM on D(4) dopamine receptor, more than 10 µM at D(2) dopamine receptor and more than 10 µM at D(3) dopamine receptor.
`O=c1cc(CNCCCn2ccnn2)[nH]c2ccc(F)cc12`: the Ki at D(4) dopamine receptor, at D(2) dopamine receptor and at D(3) dopamine receptor was more than 10 µM each time.
As for `CC(C)c1csc(CCNCc2cc(=O)c3cc(C(N)=O)ccc3[nH]2)n1`, the results for the Ki at D(4) dopamine receptor, on D(2) dopamine receptor and at D(3) dopamine receptor were 2.6 µM, more than 10 µM and more than 10 µM, respectively.
Turning to `O=c1cc(CNCCCc2nnc3ccccn23)[nH]c2ccc(F)cc12`, the Ki at D(4) dopamine receptor was 2 µM; at D(2) dopamine receptor it was more than 10 µM; at D(3) dopamine receptor, more than 10 µM.
On to `O=c1cc(CNC[C@H]2CCOC2)[nH]c2c(F)cccc12`, for which the Ki on D(4) dopamine receptor is 1.92 µM; on D(2) dopamine receptor it was more than 10 µM; on D(3) dopamine receptor, more than 10 µM.
As to `CCCn1cc(CNCc2cc(=O)c3cc(F)ccc3[nH]2)cn1`, the inhibition constant Ki at D(4) dopamine receptor is 1.1 µM; on D(2) dopamine receptor, more than 10 µM; on D(3) dopamine receptor, more than 10 µM.
As to `Cc1ccc2[nH]c(CNCCc3c(C)n[nH]c3C)cc(=O)c2c1`, the inhibition constant Ki at D(4) dopamine receptor, at D(2) dopamine receptor and at D(3) dopamine receptor was more than 10 µM in each case.
As for `CO[C@H](CNCc1cc(=O)c2cc(F)ccc2[nH]1)c1cccs1`, the inhibition constant Ki at D(4) dopamine receptor, at D(2) dopamine receptor and at D(3) dopamine receptor was more than 10 µM each time.
